Test results reported in US20030055065A1, “Tricyclic amide and urea compounds useful for inhibition of G-protein function and for treatment of proliferative diseases” (priority 1993, published 2003).

By UniProt entry, the sequences of proteins in these tests, tags left out.
UniProt Q02293, whole entry: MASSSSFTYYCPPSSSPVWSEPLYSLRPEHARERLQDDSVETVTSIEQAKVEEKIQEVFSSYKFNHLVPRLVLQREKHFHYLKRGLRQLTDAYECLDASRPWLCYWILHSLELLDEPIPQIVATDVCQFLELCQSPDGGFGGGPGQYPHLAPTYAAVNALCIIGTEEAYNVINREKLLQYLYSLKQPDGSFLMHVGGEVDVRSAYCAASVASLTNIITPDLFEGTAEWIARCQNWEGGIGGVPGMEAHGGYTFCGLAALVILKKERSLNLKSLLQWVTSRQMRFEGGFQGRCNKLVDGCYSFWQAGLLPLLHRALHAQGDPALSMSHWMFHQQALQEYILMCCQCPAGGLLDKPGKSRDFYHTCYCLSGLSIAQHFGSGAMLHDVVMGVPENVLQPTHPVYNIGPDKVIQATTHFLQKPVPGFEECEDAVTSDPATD
UniProt P53610, whole entry: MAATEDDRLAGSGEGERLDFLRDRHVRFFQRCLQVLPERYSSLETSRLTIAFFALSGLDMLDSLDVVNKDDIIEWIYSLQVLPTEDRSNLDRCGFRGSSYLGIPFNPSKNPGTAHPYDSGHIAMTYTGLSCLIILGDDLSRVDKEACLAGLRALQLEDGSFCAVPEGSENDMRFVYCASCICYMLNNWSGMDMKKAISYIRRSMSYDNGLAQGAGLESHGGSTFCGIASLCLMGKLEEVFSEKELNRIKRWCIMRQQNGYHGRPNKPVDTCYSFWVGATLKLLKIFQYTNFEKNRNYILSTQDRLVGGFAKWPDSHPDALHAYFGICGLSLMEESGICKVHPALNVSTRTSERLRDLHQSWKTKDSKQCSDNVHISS

Assays:
[1] = tested on: T24-BAG4 human bladder carcinoma cells expressing an activated H-ras gene; assay: Cell Mat Assay: tumor cell colony inhibition (tIC50); format: cell-based; settings: read-out: Tumor IC50, Mat assay; inhibition of tumor cell growth
[2] = target: farnesyl protein transferase (FPT), partially purified from rat brain (Rattus norvegicus, UniProt Q02293+Q04631); assay: Inhibition of farnesyl protein transferase (transfer of [3H]farnesyl to Ras-CVLS); format: biochemical; settings: read-out: FPT IC50, Ras-CVLS farnesylation
[3] = tested on: Normal human HEPM fibroblasts; assay: Cell Mat Assay: density of mat cells (mIC50); format: cell-based; settings: read-out: Normal IC50, Mat assay
[4] = tested on: Ras-CVLS processing in COS monkey kidney cells; assay: COS cell assay: Ras-CVLS processing (Western blot); format: cell-based; settings: read-out: Inhibition of Ras Processing IC50
[5] = target: geranylgeranyl protein transferase (GGPT) I (Rattus norvegicus, UniProt P53610+Q04631); assay: Inhibition of geranylgeranyl protein transferase I (Ras-CVLL as acceptor); format: biochemical; settings: read-out: GGPT IC50; enzyme inhibition

Row | SMILES | IC50 [1] [µM] | IC50 [2] [nM] | IC50 [3] [µM] | IC50 [4] [nM] | IC50 [5] [µM]
1 | CC(C(=O)N1CCC(=C2c3ccc(Cl)cc3CCc3cccnc32)CC1)c1ccncc1 (stereo not shown) | 8 | 1110 | > 50 | 2800 | –
2 | Cc1ccc2c(n1)C(=C1CCN(C(=O)Cc3ccncc3)CC1)c1ccc(Cl)cc1CC2 | – | 930 | – | > 10000 | 35.1
